{"sequences": {"note": "Amino acid sequences for entries named in this document (tags omitted).", "UniProt P35398, whole entry": "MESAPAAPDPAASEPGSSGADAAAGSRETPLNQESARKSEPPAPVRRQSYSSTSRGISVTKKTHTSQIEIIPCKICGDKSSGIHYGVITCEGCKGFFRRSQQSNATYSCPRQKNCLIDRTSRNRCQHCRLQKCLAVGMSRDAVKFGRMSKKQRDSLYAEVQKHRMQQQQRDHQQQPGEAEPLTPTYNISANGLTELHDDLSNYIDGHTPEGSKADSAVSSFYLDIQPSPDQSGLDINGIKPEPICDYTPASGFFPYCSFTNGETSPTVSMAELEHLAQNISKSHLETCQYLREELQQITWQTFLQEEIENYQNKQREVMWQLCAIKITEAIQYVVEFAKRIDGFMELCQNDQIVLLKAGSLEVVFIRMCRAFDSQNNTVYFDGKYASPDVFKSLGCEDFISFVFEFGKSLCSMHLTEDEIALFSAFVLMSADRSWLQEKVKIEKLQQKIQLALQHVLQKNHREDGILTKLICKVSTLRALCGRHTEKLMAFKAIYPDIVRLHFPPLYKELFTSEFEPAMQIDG"}, "source": "PubChem BioAssay AID560", "about": "(The Scripps Research Institute Molecular Screening Center, 2006)", "note": "Only a part is listed here, and it is no random draw. Active and inactive are the calls of the source.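 The calls were made as follows: active = activation above the mean of all tested compounds plus 3 SD (cut at about 49% in these data); inactive = the rest.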", "data": [{"biological_target": "Nuclear receptor ROR-alpha (Homo sapiens) (UniProt P35398)", "assay": "activators of orphan receptor RORA, primary screen, cell-based, luminescence (AID 560);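 also: 0% = DMSO-treated RORA cells and 100% = added signal equal to DMSO minus mock-transfected cells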", "settings": "CHO-K1 Gal4-RORA LBD luciferase reporter, at 10 µM, active compounds read high, percent increase over mock-subtracted basal signal", "values": [{"smiles": "CCOP(C)(=S)SCC(=O)NC(C)(CC)C(=O)O", "note": "(configuration not stated)", "activation": "inactive: 6.8%"}, {"smiles": "Cc1ccccc1NP(C)(=O)Nc1ccccc1C", "activation": "inactive: -5.7%"}, {"smiles": "CN(C)CCOC(=O)C(O)(c1ccccc1)C1CCCCC1", "note": "(configuration not stated)", "activation": "inactive: -3.9%"}, {"smiles": "CP(=O)(Nc1ccccc1F)Oc1ccccc1", "note": "(configuration not stated)", "activation": "inactive: -7.1%"}, {"smiles": "CP(=O)(Nc1ccccn1)Oc1ccccc1", "note": "(configuration not stated)", "activation": "inactive: -6.7%"}, {"smiles": "COc1ccccc1OP(C)(=O)Nc1ccc(C)c(C)c1", "note": "(configuration not stated)", "activation": "inactive: -0.4%"}, {"smiles": "Cc1nc2ccc3ccccc3c2o1.O=[N+]([O-])c1cc([N+](=O)[O-])c(O)c([N+](=O)[O-])c1", "activation": "inactive: 2.6%"}, {"smiles": "COc1ccccc1OP(C)(=O)Nc1c(C)n(C)n(-c2ccccc2)c1=O", "note": "(configuration not stated)", "activation": "inactive: 4.5%"}, {"smiles": "CP(=O)(Oc1ccccc1)N1CCOC1=O", "note": "(configuration not stated)", "activation": "inactive: -15%"}, {"smiles": "CCN(CC)CC(O)COC(=O)C(O)(c1ccccc1)C1CCCCC1", "note": "(configuration not stated)", "activation": "inactive: -11.5%"}, {"smiles": "CP(=O)(NC(=O)Nc1ccccc1)Oc1ccccc1", "note": "(configuration not stated)", "activation": "inactive: -11%"}, {"smiles": "CCOP(C)(=S)SCC(=O)NC(C)C(=O)O", "note": "(configuration not stated)", "activation": "inactive: -17.7%"}, {"smiles": "CP(=S)(Nn1cnnc1)Oc1ccccc1", "note": "(configuration not stated)", "activation": "inactive: -8.9%"}, {"smiles": "Cc1ccc(NP(C)(=O)Oc2ccccc2)c(C)c1", "note": "(configuration not stated)", "activation": "inactive: 3.7%"}, {"smiles": "COc1ccccc1OP(C)(=O)Nc1ccc(C)cc1", "note": "(configuration not stated)", "activation": "inactive: -1.2%"}, {"smiles": "Cc1ccc(C)c(NP(C)(=O)Oc2ccccc2)c1", "note": "(configuration not stated)", "activation": "inactive: 1.4%"}, {"smiles": "Cc1nc2ccc3ccccc3c2s1.O=[N+]([O-])c1cc([N+](=O)[O-])c(O)c([N+](=O)[O-])c1", "activation": "inactive: 10%"}]}]}
